This assay deals with P22 rat carcinosarcoma.

As for `CC(C)NCC(O)COc1cccc2ccccc12` (racemic) [propranolol, 1-[ispropylamino]3-[1-napthyloxy]-2-propanol hydrocholoride], the “Tumor blood flow, % of control” value (antihypertensive co-administered with CA-4DP 30 mg/kg i.p., approximately 1 hour after treatment) is given as 7.6 % of control.

On to “Combretastatin A-4 Disodium Phosphate Prodrug [CA-4DP]”, for which the “THF (tumor blood flow), % of saline control” value (rat, in vivo, ip, 30 mg/kg) is recorded as 14 % of saline control.

The values above are taken from patent publication US7358236B1 (priority 2002, dated 2008).
